Data as given in paper PMC1403760 (BMC Pharmacology, 2006).
Like-named read-outs stand apart in the source and are kept apart here.

The chains behind the UniProt entries cited, without tags or fusion partners. Where a name states a change or a piece, a line headed by the entry shows the natural chain unless it says otherwise.
UniProt P33534: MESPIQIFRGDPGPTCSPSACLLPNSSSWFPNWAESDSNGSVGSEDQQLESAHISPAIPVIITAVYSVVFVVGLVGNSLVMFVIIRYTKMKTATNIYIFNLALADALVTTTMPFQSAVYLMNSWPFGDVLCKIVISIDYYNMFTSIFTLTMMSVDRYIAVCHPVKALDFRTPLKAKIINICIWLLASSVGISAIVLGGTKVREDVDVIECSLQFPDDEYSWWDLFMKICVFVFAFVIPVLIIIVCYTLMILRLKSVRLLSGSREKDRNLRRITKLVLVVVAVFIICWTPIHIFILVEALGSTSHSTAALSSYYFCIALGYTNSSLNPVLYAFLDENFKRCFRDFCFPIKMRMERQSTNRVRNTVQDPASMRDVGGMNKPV

Assays:
mouse κ-opioid receptor [1] = molecular target: T1, mouse κ-opioid receptor (Mus musculus, UniProt P33534); assay: cell-based
mouse κ-opioid receptor [2] = molecular target: T1, mouse κ-opioid receptor; assay: biochemical; type: binding; parameters: expressed in transfected cells
mouse κ-opioid receptor [3] = molecular target: T1, mouse κ-opioid receptor

SMILES	EC50 (mouse κ-opioid receptor [1]) [nM]	Ki (mouse κ-opioid receptor [2]) [nM]	inhibition at 5 µM (mouse κ-opioid receptor [1]; HEK293, read-out: % Max Inhibition (Mean +/- SEM)) [%]	EC50 ± SEM (mouse κ-opioid receptor [3])	EC50 (mouse κ-opioid receptor [3]; read-out: EC50 ± SEM) [nM]	Ki (mouse κ-opioid receptor [2]; pH 7.4, read-out: HEK-κ Ki) [nM]
Oc1ccc2c(c1)[C@@]13CCCC[C@@]1(O)[C@@H](C2)N(CC1CCC1)CC3 [Butorphanol]	57 ± 47	2.5 ± 0.8				
C[C@H]1[C@H]2Cc3ccc(O)cc3[C@]1(C)CCN2CC1CC1 [Cyclazocine]	2 ± 2	0.1	39 ± 5			
C[C@@]12CCCCC[C@@H](Cc3ccc(O)cc31)[C@@H]2N [Dezocine]		24.5 ± 1.5		Antagonist		
C=CCN1CC[C@]23c4c5ccc(O)c4O[C@H]2[C@@H](O)C=C[C@H]3[C@H]1C5 [Nalorphine]	483 ± 245	1.6 ± 0.1				
C=CCN1CCC2(C)c3cc(O)ccc3CC1C2C (stereo not shown) [SKF 10047]	24 ± 6	0.4 ± 0.2				
C=C1C[C@H](C)[C@H]2[C@H]3Cc4ccc(O)cc4[C@@]2(CCN3CC2CCC2)C1 [Xorphanol]					3.3 ± 2	0.4 ± 0.2
